4 molecules from PubChem BioAssay (EPA / NIEHS) can be followed below.

The entries are a selection whose mix differs from that of the whole data set. Results filed as inconclusive are left out. A structure can be active in one record and inactive in another. Activity calls are given as the source filed them. The calls were made as follows, unless noted: active = hit-call score of the fitted dose curve at least 0.9, where 1 is the maximum; inactive = score below 0.9.

Test [1] is described as follows: BSK_BT_PBMCCytotoxicity: PBMC Cytotoxicity Assessment in the BioMAP Diversity Plus: BT Assay (AID 2284225).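 Also: PBMC viability measured by Alamar Blue dye reduction fluorescence.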 Conditions: primary human B cells with PBMC. The method in brief:
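75,000 cells/well; cpd 1 h → SEB + TSST-1 (20 ng/mL final each) → 90 h → Alamar Blue 6 h → fluor. 546/580 nm. DMSO = neg. control/baseline.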

Read-out in test [2]: Secreted IgG (sIgG), gene 3500
Put plainly: BSK_BT_sIgG: BioMAP Diversity Plus: BT Assay for Secreted IgG (sIgG) Biomarker Activity (AID 2284226). The settings on record: primary human B cells with PBMC. The procedure:
BSK_BT is a cell-based, multiplexed-readout assay that uses B cell and peripheral blood mononuclear cells, a human vascular primary cell co-culture, with measurements taken at 24 hours after chemical dosing in a microplate: 96-well plate.BSK_BT_sIgG is an assay component measured in the BSK_BT assay. It measures secreted IgG related to regulation of gene expression using ELISA technology.Data from the assay component BSK_BT_sIgG was analyzed at the endpoint, BSK_BT_sIgG, in the positive analysis fitting direction relative to DMSO as the negative control and baseline of activity. Using a type of cytokine quantitation reporter, gain or loss-of-signal activity can be used to understand protein changes. […]
The levels of cell surface (or secreted, indicated by the prefix "s") biomarker endpoints were measured by ELISA. Overt cytotoxicity to cells in confluent adherent cultures (all systems other than the BT system) was assessed by measuring total protein levels using sulforhodamine B (SRB) staining in parallel cultures at the time of biomarker measurements, indicated as SRB endpoints. For proliferation assays for adherent cell types, individual cell types are cultured at sub-confluence and relative cell numbers quantified by SRB staining at time points optimized for each system (48 h: 3C and CASM3C systems; 72 h: BT and HDF3CGF systems; 96 h: SAg system). […] Plates were read after 6 h.

Test [3] in a line: CCTE_Mundy_HCI_Cortical_Synap_Neur_Matur_NeuriteSpotCountPerNeuron: CCTE's Synaptogenesis and Neurite Maturation Assay in rat cortical cells for Neurite Spot Count per Neuron Count, Mundy Lab (AID 2284215). The procedure: (§1) CCTE_Mundy_HCI_Cortical_Synap&Neurite_Matur is a multiplexed, cell-based-readout assay that uses rat primary cortical cells with measurements taken at 288.33 hours after chemical dosing in a microplate: 96-well plate.CCTE_Mundy_HCI_Cortical_Synap_Neur_Matur_NeuriteSpotCountPerNeuron is one of eight components of the CCTE_Mundy_HCI_Cortical_Synap&Neurite_Matur assay. It measures synaptogenesis and neurite maturation related to number of neurite-associated synapses (synaptophysin puncta) per neuron using High Content Imaging of fluorescently labelled markers.[…] Using a type of morphology reporter, loss -of-signal activity can be used to understand developmental effects.
(§2) Cells are plated onto 96 well plates and allowed 2 hr for attachment to the substrate. At days in vitro (DIV) 5, Cytosine Arabinoside (AraC) is added to arrest glial cell growth. Chemicals are dosed and a media change is performed at DIV 7 of differentiation and is continued through DIV 12 when the experiment is terminated. Cells are fixed with […] and Hoechst Dye. Cells are stained using Millipore Mouse anti-MAP2MAB3418 (1:800) and Millipore Rabbit anti-Synaptophysinsc-1750 (1:250) primary antibodies and Alexa Fluor-488 goat anti-mouse and AlexaFluor-546 goat anti-rabbit secondary antibodies to label neuronal cell nuclei, synapses and neurites. A Cellomics ArrayScan VTi HCS Reader is used for automated image acquisition and analysis of neurite outgrowth.

Test [4] in a line: CCTE_Mundy_HCI_Cortical_Synap_Neur_Matur_SynapseCount: CCTE's Synaptogenesis and Neurite Maturation Assay in rat cortical cells for Synapse Count, Mundy Lab (AID 2284218). The gist of the method:
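Rat primary cortical cells in 96-well plates received AraC at DIV 5 and were dosed with chemicals at DIV 7 with media change, through DIV 12 (288.33 h). Synapses per neuron counted by high-content imaging of MAP2/synaptophysin/Hoechst staining, versus DMSO baseline.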

The nature of test [5]: CCTE_Mundy_HCI_hN2_NOG_NeuriteCount: CCTE's Neurite Outgrowth Assay in human hN2 cells for Neurite Count, Mundy Lab (AID 2284219; active = hit-call score of the fitted dose curve at least 0.9, where 1 is the maximum). The gist of the method: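 In this morphology assay, hNP1-derived neurons received test chemical 2 h post-plating and were fixed two days later in warm paraformaldehyde/sucrose containing Hoechst 33342. Neurites, labelled by rabbit anti-βIII-tubulin (1:800) and Alexa Fluor-488 (1:500), were counted automatically.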

Test [6] in a line: CCTE_Mundy_HCI_hN2_NOG_NeuriteLength: CCTE's Neurite Outgrowth Assay in human hN2 cells for Neurite Length, Mundy Lab (AID 2284220; active = hit-call score of the fitted dose curve at least 0.9, where 1 is the maximum). The method in brief:
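Plate hNP1-derived neurons, then add chemical 2 h later as a 1/10 dilution. Stain with anti-βIII-tubulin then Alexa Fluor-488 secondary, and image automatically to measure neurite length.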

A short description of test [7]: CCTE_Mundy_HCI_hN2_NOG_NeuronCount: CCTE's Neurite Outgrowth Assay in human hN2 cells for Neuron Count, Mundy Lab (AID 2284221; active = hit-call score of the fitted dose curve at least 0.9, where 1 is the maximum). The method in brief: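 Read-out is the number of betaIII-tubulin-positive neurons imaged by automated high-content analysis, with DMSO as negative control.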
The nature of test [8]: CCTE_Mundy_HCI_Cortical_Synap_Neur_Matur_CellBodySpotCount: CCTE's Synaptogenesis and Neurite Maturation Assay in rat cortical cells for Cell Body Spot Count, Mundy Lab (AID 2284223). The method in brief: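 Synapse number at neuronal cell bodies was quantified as synaptophysin puncta per neuron in rat cortical cultures exposed from DIV 7 to DIV 12. Values were normalised to DMSO.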

Test [9] is described as follows: CCTE_Mundy_HCI_Cortical_Synap_Neur_Matur_NeuriteCount: CCTE's Synaptogenesis and Neurite Maturation Assay in rat cortical cells for Neurite Count, Mundy Lab (AID 2284222).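 Also: exposure from day 7 to day 12 in vitro with readout at day 12.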 The procedure: as §1, with “plate.CCTE_Mundy_HCI_Cortical_Synap_Neur_Matur_NeuriteCount” for “plate.CCTE_Mundy_HCI_Cortical_Synap_Neur_Matur_NeuriteSpotCountPerNeuron”, “neurites” for “neurite-associated synapses (synaptophysin puncta) per neuron”
as §2

Test [10] is described as follows: CCTE_Mundy_HCI_hNP1_Pro_ResponderAvgInten: CCTE's Proliferation Assay in human neuroprogenitor cells, Mundy Lab (AID 2284224; active = hit-call score of the fitted dose curve at least 0.9, where 1 is the maximum). The procedure:
CCTE_Mundy_HCI_hNP1_Pro is a multiplexed, cell-based-readout assay that uses neural stem cells derived from a neuroepithelial cell lineage of WA09 embryonic cells with measurements taken at 26.25 hours after chemical dosing in a microplate: 96-well plate.CCTE_Mundy_HCI_hNP1_Pro_ResponderAvgInten is one of three components of the CCTE_Mundy_HCI_hNP1_Pro assay. It measures proliferation related to percentage of BrdU positive cells using High Content Imaging of fluorescently labelled markers.Data from the assay component CCTE_Mundy_HCI_hNP1_Pro_ResponderAvgInten was analyzed at the endpoint CCTE_Mundy_HCI_hNP1_Pro_ResponderAvgInten in the positive analysis fitting direction relative to DMSO as the negative control and baseline of activity. Using a type of growth reporter, loss -of-signal activity can be used to understand viability effects.
Human neural progenitor cells (hNP1) were obtained as cryopreserved cells from ArunA Biomedical, Athens Georgia. Cells are plated on pre-coated poly-L-ornithine/laminin clear bottom and opaque 96 well plates (day 0). Plates are placed in a 37 °C, 5% CO2 incubator for 40 to 44 hours at which time plates are removed from the incubator and 10 uL of a freshly made chemical solution is added to each well. Twenty hours after the addition of the chemicals, the clear plates are removed from the incubator and 11 uL of a BrdU solution is added to each well. […]

On to `O=[N+]([O-])c1ccc([N+](=O)[O-])cc1`, for which the AC50 in [1] is active: 20.2 µM; in test [2] it was active: 8.39 µM.

Take `CC(C)OP(=S)(OC(C)C)SCCNS(=O)(=O)c1ccccc1`: the AC50 in test [3] is active: 17.5 µM; in test [4], active: 25.1 µM; in test [5], active: 20.9 µM; in test [6], active: 17 µM; in test [7], active: 26.5 µM; in test [8] it was active: 52 µM. Besides, the outcome in test [3], in [4] and in [8] was inactive.

With `CC(C)OP(=O)(OC(C)C)SCCNS(=O)(=O)c1ccccc1`, the outcome in [3], in test [4], in [9], in test [8] and in test [10] was inactive.

For `O=C(Cl)Oc1ccccc1`, the outcome in test [1] and in test [2] was inactive.

What is called AC50 is the concentration at which the activity in the assay is half-maximal.
